Molecular target: Rho-associated protein kinase 2 (Homo sapiens, UniProt O75116)
Assay: Inhibition of ROCK2 (unknown origin) assessed as fold change at 1 uM incubated for 30 mins in presence of [gamma-33P]ATP by multidrop micro reagent based assay relative to control

Amino acid sequences for entries named in this document (tags omitted). A change or cut given only in a name is not applied to a line headed by its entry.
UniProt O75116: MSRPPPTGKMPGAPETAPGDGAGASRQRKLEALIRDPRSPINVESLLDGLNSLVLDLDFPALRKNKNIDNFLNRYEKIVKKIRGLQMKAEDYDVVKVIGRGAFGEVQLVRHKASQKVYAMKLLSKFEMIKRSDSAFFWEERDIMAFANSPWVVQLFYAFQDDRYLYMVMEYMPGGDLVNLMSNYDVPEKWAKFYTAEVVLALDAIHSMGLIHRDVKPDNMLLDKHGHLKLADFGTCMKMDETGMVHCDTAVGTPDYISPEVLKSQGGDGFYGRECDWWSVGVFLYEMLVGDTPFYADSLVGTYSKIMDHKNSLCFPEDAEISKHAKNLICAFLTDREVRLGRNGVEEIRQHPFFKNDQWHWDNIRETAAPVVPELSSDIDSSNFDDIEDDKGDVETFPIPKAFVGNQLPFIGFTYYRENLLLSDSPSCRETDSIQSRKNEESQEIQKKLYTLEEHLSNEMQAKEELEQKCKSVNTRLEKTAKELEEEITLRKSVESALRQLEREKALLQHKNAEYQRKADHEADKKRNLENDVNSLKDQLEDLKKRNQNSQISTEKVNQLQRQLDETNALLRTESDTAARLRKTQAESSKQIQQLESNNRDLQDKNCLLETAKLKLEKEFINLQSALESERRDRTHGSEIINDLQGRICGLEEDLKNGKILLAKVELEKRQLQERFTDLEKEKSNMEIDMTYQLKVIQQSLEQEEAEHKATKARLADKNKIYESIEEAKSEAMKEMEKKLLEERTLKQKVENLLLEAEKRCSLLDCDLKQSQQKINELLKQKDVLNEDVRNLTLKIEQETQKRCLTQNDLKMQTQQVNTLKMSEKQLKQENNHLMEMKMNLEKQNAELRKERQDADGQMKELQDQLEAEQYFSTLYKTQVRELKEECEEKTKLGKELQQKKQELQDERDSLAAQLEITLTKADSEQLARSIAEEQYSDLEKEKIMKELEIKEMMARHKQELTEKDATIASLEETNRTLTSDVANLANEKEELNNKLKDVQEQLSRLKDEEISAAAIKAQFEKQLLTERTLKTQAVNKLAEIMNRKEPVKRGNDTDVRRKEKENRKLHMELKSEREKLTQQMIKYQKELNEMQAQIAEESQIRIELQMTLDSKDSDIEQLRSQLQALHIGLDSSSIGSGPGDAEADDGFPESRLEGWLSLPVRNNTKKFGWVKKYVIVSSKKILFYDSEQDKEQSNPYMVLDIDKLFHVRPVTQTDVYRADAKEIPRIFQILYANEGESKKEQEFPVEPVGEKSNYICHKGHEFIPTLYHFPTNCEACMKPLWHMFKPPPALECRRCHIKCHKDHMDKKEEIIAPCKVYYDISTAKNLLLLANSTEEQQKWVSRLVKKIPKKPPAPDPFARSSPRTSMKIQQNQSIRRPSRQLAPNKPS

CC1=C(C(=O)Nc2cc3cn[nH]c3cc2F)C(c2ccc(C(F)(F)F)cc2)CC(=O)N1 (stereo unspecified)
fold change (FC): 20
